{"source": "PubChem BioAssay (NCI)", "experiment_in_all_cases": "DTP human tumour cell line panel, 48 h", "key": {"NCI/ADR-RES ovarian": {"system": "NCI/ADR-RES ovarian"}, "NCI-H322M lung": {"system": "NCI-H322M lung"}, "786-0 renal": {"system": "786-0 renal"}, "MCF7 breast": {"system": "MCF7 breast"}, "HT29 colon": {"system": "HT29 colon"}, "LOX IMVI melanoma": {"system": "LOX IMVI melanoma"}, "RPMI-8226 leukemia": {"system": "RPMI-8226 leukemia"}, "MDA-MB-231 breast": {"system": "MDA-MB-231 breast"}, "CAKI-1 renal": {"system": "CAKI-1 renal"}, "OVCAR-4 ovarian": {"system": "OVCAR-4 ovarian"}, "SW-620 colon": {"system": "SW-620 colon"}, "SF-268 CNS": {"system": "SF-268 CNS"}, "SF-295 CNS": {"system": "SF-295 CNS"}, "RXF 393 renal": {"system": "RXF 393 renal"}, "UACC-257 melanoma": {"system": "UACC-257 melanoma"}, "SK-MEL-2 melanoma": {"system": "SK-MEL-2 melanoma"}, "SR leukemia": {"system": "SR leukemia"}, "EKVX NSCLC": {"system": "EKVX NSCLC"}, "SK-MEL-5 melanoma": {"system": "SK-MEL-5 melanoma"}, "COLO 205 colon": {"system": "COLO 205 colon"}, "MOLT-4 leukemia": {"system": "MOLT-4 leukemia"}, "IGROV1 ovarian": {"system": "IGROV1 ovarian"}, "HCC-2998 colon": {"system": "HCC-2998 colon"}, "HOP-92 NSCLC": {"system": "HOP-92 NSCLC"}, "ACHN renal": {"system": "ACHN renal"}, "NCI-H460 lung": {"system": "NCI-H460 lung"}, "OVCAR-8 ovarian": {"system": "OVCAR-8 ovarian"}, "A549 NSCLC": {"system": "A549 NSCLC"}, "SF-539 CNS": {"system": "SF-539 CNS"}, "HCT-116 colon": {"system": "HCT-116 colon"}, "HL-60(TB) leukemia": {"system": "HL-60(TB) leukemia"}, "U251 CNS": {"system": "U251 CNS"}, "NCI-H23 lung": {"system": "NCI-H23 lung"}, "DU-145 prostate": {"system": "DU-145 prostate"}, "BT-549 breast": {"system": "BT-549 breast"}, "SN12C renal": {"system": "SN12C renal"}, "UO-31 renal": {"system": "UO-31 renal"}, "MDA-MB-435": {"system": "MDA-MB-435"}, "SK-MEL-28 melanoma": {"system": "SK-MEL-28 melanoma"}, "SNB-75 CNS": {"system": "SNB-75 CNS"}, "M14 melanoma": {"system": "M14 melanoma"}, "OVCAR-3 ovarian": {"system": "OVCAR-3 ovarian"}, "MDA-N": {"system": "MDA-N"}, "OVCAR-5 ovarian": {"system": "OVCAR-5 ovarian"}, "TK-10 renal": {"system": "TK-10 renal"}, "HS 578T breast": {"system": "HS 578T breast"}, "NCI-H522 lung": {"system": "NCI-H522 lung"}, "SNB-19 CNS": {"system": "SNB-19 CNS"}, "UACC-62 melanoma": {"system": "UACC-62 melanoma"}, "HCT-15 colon": {"system": "HCT-15 colon"}, "T-47D breast": {"system": "T-47D breast"}, "K-562 leukemia": {"system": "K-562 leukemia"}, "SK-OV-3 ovarian": {"system": "SK-OV-3 ovarian"}, "MALME-3M melanoma": {"system": "MALME-3M melanoma"}, "KM12 colon": {"system": "KM12 colon"}, "CCRF-CEM leukemia": {"system": "CCRF-CEM leukemia"}, "PC-3 prostate": {"system": "PC-3 prostate"}, "A498 renal": {"system": "A498 renal"}, "NCI-H226 lung": {"system": "NCI-H226 lung"}}, "note": "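1) Cells in 96-well plates. 2) Compound, 48 h, 5 concentrations. 3) Linear interpolation between surrounding doses. 4) Unreached endpoint = highest concentration. TGI is the concentration that stops growth completely.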"}
{"smiles": "NP(=O)(OCc1ccc([N+](=O)[O-])s1)N(CCBr)CCBr", "note": "(centres undefined)", "values": [{"measurement": "TGI", "setting": "NCI/ADR-RES ovarian", "result": 11.7, "unit": "µM"}, {"measurement": "TGI", "setting": "NCI-H322M lung", "result": 13.2, "unit": "µM"}, {"measurement": "TGI", "setting": "786-0 renal", "result": 4.92, "unit": "µM"}, {"measurement": "TGI", "setting": "MCF7 breast", "result": 2.59, "unit": "µM"}, {"measurement": "TGI", "setting": "HT29 colon", "result": 5.62, "unit": "µM"}, {"measurement": "TGI", "setting": "LOX IMVI melanoma", "result": 3.14, "unit": "µM"}, {"measurement": "TGI", "setting": "RPMI-8226 leukemia", "result": 21.8, "unit": "µM"}, {"measurement": "TGI", "setting": "MDA-MB-231 breast", "result": 9.73, "unit": "µM"}, {"measurement": "TGI", "setting": "CAKI-1 renal", "result": 0.935, "unit": "µM"}, {"measurement": "TGI", "setting": "OVCAR-4 ovarian", "result": 3.26, "unit": "µM"}, {"measurement": "TGI", "setting": "SW-620 colon", "result": 5.84, "unit": "µM"}, {"measurement": "TGI", "setting": "SF-268 CNS", "result": 5.6, "unit": "µM"}, {"measurement": "TGI", "setting": "SF-295 CNS", "result": 4.36, "unit": "µM"}, {"measurement": "TGI", "setting": "RXF 393 renal", "result": 2.35, "unit": "µM"}, {"measurement": "TGI", "setting": "UACC-257 melanoma", "result": 3.15, "unit": "µM"}, {"measurement": "TGI", "setting": "SK-MEL-2 melanoma", "result": 8.35, "unit": "µM"}, {"measurement": "TGI", "setting": "SR leukemia", "result": 0.245, "unit": "µM"}, {"measurement": "TGI", "setting": "EKVX NSCLC", "result": 4.75, "unit": "µM"}, {"measurement": "TGI", "setting": "SK-MEL-5 melanoma", "result": 1.95, "unit": "µM"}, {"measurement": "TGI", "setting": "COLO 205 colon", "result": 4.92, "unit": "µM"}, {"measurement": "TGI", "setting": "MOLT-4 leukemia", "result": 0.576, "unit": "µM"}, {"measurement": "TGI", "setting": "IGROV1 ovarian", "result": 2.9, "unit": "µM"}, {"measurement": "TGI", "setting": "HCC-2998 colon", "result": 2.04, "unit": "µM"}, {"measurement": "TGI", "setting": "HOP-92 NSCLC", "result": 3.21, "unit": "µM"}, {"measurement": "TGI", "setting": "ACHN renal", "result": 3.06, "unit": "µM"}, {"measurement": "TGI", "setting": "NCI-H460 lung", "result": 1.47, "unit": "µM"}, {"measurement": "TGI", "setting": "OVCAR-8 ovarian", "result": 2.95, "unit": "µM"}, {"measurement": "TGI", "setting": "A549 NSCLC", "result": 3.46, "unit": "µM"}, {"measurement": "TGI", "setting": "SF-539 CNS", "result": 2.5, "unit": "µM"}, {"measurement": "TGI", "setting": "HCT-116 colon", "result": 15.3, "unit": "µM"}, {"measurement": "TGI", "setting": "HL-60(TB) leukemia", "result": 0.46, "unit": "µM"}, {"measurement": "TGI", "setting": "U251 CNS", "result": 10.4, "unit": "µM"}, {"measurement": "TGI", "setting": "NCI-H23 lung", "result": 1.66, "unit": "µM"}, {"measurement": "TGI", "setting": "DU-145 prostate", "result": 12.7, "unit": "µM"}, {"measurement": "TGI", "setting": "BT-549 breast", "result": 0.487, "unit": "µM"}, {"measurement": "TGI", "setting": "SN12C renal", "result": 7.58, "unit": "µM"}, {"measurement": "TGI", "setting": "UO-31 renal", "result": 3.35, "unit": "µM"}, {"measurement": "TGI", "setting": "MDA-MB-435", "result": 2.77, "unit": "µM"}, {"measurement": "TGI", "setting": "SK-MEL-28 melanoma", "result": 6.22, "unit": "µM"}, {"measurement": "TGI", "setting": "SNB-75 CNS", "result": 2.59, "unit": "µM"}, {"measurement": "TGI", "setting": "M14 melanoma", "result": 2.32, "unit": "µM"}, {"measurement": "TGI", "setting": "OVCAR-3 ovarian", "result": 2.85, "unit": "µM"}, {"measurement": "TGI", "setting": "MDA-N", "result": 3.54, "unit": "µM"}, {"measurement": "TGI", "setting": "OVCAR-5 ovarian", "result": 4.99, "unit": "µM"}, {"measurement": "TGI", "setting": "TK-10 renal", "result": 12.3, "unit": "µM"}, {"measurement": "TGI", "setting": "HS 578T breast", "result": 6.44, "unit": "µM"}, {"measurement": "TGI", "setting": "NCI-H522 lung", "result": 0.925, "unit": "µM"}, {"measurement": "TGI", "setting": "SNB-19 CNS", "result": 15.1, "unit": "µM"}, {"measurement": "TGI", "setting": "UACC-62 melanoma", "result": 1.63, "unit": "µM"}, {"measurement": "TGI", "setting": "HCT-15 colon", "result": 1.1, "unit": "µM"}, {"measurement": "TGI", "setting": "T-47D breast", "result": 13.9, "unit": "µM"}, {"measurement": "TGI", "setting": "K-562 leukemia", "result": 23.9, "unit": "µM"}, {"measurement": "TGI", "setting": "SK-OV-3 ovarian", "result": 11.6, "unit": "µM"}, {"measurement": "TGI", "setting": "MALME-3M melanoma", "result": 4.49, "unit": "µM"}, {"measurement": "TGI", "setting": "KM12 colon", "result": 2.97, "unit": "µM"}, {"measurement": "TGI", "setting": "CCRF-CEM leukemia", "result": 5.26, "unit": "µM"}, {"measurement": "TGI", "setting": "PC-3 prostate", "result": 8.45, "unit": "µM"}, {"measurement": "TGI", "setting": "A498 renal", "result": 2.94, "unit": "µM"}, {"measurement": "TGI", "setting": "NCI-H226 lung", "result": 1.93, "unit": "µM"}]}
